In patent publication US8106031B2, “Hydrolytically-resistant boron-containing therapeutics and methods of use” (Anacor Pharmaceuticals, Inc., priority 2006, dated 2012):

System: Cryptococcus neoformans
Test: MIC against C. neoformans (NCCLS broth dilution)
Format: cell-based
Conditions: 19a relative to 9a, 19b relative to 9b
Source text: To determine the antifungal activity of these compounds we screened for their minimum inhibitory concentrations (MIC) against the major dermatophytes that cause onychomycosis, T. rubrum and T. mentagrophytes, and against the yeasts and molds C. albicans, C. neoformans and A. fumigatus to test for their broad spectrum activity. The antifungal agent ciclopirox, currently in use for the topical treatment of onychomycosis, was used as a reference.
All MIC testing against Trichophyton rubrum, Trichophyton mentagrophytes, Candida albicans, Cryptococcus neoformans and Aspergillus fumigatus were determined following the National Committee for Clinical Laboratory Standards (NCCLS) guidelines for antimicrobial testing of yeasts and filamentous fungi.^i,ii
Two-fold serial dilutions of the test compounds were prepared in 96-well plates. […] Pfaller M A, Chaturvedi V, Espinel-Ingroff A, Ghannoum M A, Gosey L L, Odds F C, Rex J H, Rinaldi M G, Sheehan D J, Walsh T J, Warnock D W. NCCLS publication M27-A2—Reference Method for Broth Dilution Antifungal Susceptibility Testing of Yeasts; Approved Standard—Second Edition. […] Pfaller M A, Chaturvedi V, Espinel-Ingroff A, Ghannoum M A, Gosey L L, Odds F C, Rex J H, Rinaldi M G, Sheehan D J, Walsh T J, Warnock D W. NCCLS publication M38-A—Reference Method for Broth Dilution Antifungal Susceptibility Testing of Filamentous Fungi; Approved Standard.

SMILES: OB1OCc2ccccc21 [19a, 1,3-Dihydro-1-hydroxy-2,1-benzoxaborole]
- fold increase in activity against C. neoformans: 8 fold
